{"sequences": {"note": "Amino acid sequences for entries named in this document (tags omitted).", "UniProt Q9UGI6, whole entry": "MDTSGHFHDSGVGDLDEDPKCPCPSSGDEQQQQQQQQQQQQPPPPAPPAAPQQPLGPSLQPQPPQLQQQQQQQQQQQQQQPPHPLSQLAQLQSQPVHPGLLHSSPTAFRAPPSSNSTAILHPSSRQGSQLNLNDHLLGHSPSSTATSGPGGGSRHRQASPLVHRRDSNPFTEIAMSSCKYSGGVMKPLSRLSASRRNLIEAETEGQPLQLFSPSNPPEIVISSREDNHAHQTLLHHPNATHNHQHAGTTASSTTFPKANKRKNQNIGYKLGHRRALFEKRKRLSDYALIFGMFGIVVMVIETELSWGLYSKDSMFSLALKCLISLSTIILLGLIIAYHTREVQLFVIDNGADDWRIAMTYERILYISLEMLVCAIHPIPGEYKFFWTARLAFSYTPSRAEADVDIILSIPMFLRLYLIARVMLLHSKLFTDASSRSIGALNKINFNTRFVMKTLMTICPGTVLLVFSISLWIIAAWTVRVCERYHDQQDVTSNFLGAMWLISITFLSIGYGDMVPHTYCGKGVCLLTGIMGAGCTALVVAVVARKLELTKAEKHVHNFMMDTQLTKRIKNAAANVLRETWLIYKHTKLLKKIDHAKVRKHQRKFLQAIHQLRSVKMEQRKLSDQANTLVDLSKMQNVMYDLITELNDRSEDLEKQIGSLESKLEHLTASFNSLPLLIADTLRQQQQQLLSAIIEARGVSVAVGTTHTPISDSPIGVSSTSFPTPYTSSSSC"}, "source": "paper PMC3483567", "about": "(Chemistry & biology, 2012)", "target": "hSK3 (Homo sapiens, UniProt Q9UGI6)", "assay": "biochemical"}
{"smiles": "Nc1nc2ccc(OC(F)(F)F)cc2s1", "note": "[Riluzole]", "values": [{"measurement": "EC50", "value": 16, "unit": "µM"}]}
